Molecular target: T1, farnesyltransferase (Rattus norvegicus, UniProt Q02293+Q04631)
T1 construct: The enzyme can be purified according to Cell, 62: 81-88 (1990), utilizing steps one, two, and three; from tissue; host or cells: rat brain
Assay: Inhibition of farnesyltransferase (3H-farnesyldiphosphate / H-Ras filter assay)
Assay type: biochemical
Settings: read-out: % Inhibition at 10^−7 M
From the text: The ability of the compounds of the present invention to inhibit farnesyltransferase can be measured according to the method described in J. Biol. Chem., 266: 14603 (1991) or J. Biol. Chem., 270:660-664 (1995). Procedures for determination of the inhibition of farnesylation of the oncogene protein Ras are described in J. Biol. Chem., 266:15575-15578 (1991) and U.S. Pat. No. 5,245,061. Inhibition of rat brain farnesyltransferase can also be measured in vitro using an Amersham Life Science commercial scintillation proximity assay kit and substituting a biotin-K Ras B fragment (0.1 μM final concentration) for the biotin-lamin substrate provided by Amersham. The enzyme can be purified according to Cell, 62: 81-88 (1990), utilizing steps one, two, and three. […] The percent inhibition of the farnesylation caused by the compounds of the present invention (at 10^−6 M) compared to an uninhibited control sample can be evaluated in the same Amersham test system.
The mixture was brought to 37° C., treated with enzyme, incubated for 30 minutes, treated with 1 M HCl/ethanol (1 mL) to stop the reaction, stirred for 15 minutes at room temperature, diluted with ethanol (2 mL), filtered through a 2.5 cm glass microfiber filter (Whatman) with ethanol rinses (4×2 mL). The glass transferred to a scintillation vial and treated with scintillation fluid (5 mL). The radioisotope retained on the glass fiber filter was counted and reflected the activity of the enzyme.

Chains of the proteins cited; added tags and fusions are not shown.
UniProt Q02293, whole entry: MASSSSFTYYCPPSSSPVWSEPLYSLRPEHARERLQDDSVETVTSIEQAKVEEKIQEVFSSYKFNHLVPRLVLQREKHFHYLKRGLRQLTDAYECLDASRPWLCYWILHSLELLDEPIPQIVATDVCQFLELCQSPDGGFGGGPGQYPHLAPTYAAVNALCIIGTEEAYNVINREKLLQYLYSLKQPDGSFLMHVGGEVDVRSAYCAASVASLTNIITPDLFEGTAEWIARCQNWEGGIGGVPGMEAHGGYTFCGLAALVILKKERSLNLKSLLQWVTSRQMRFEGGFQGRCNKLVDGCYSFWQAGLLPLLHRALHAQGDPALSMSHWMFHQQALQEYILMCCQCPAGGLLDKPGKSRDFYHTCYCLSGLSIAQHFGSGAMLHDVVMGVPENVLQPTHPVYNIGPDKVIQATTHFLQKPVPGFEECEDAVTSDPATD

Q: How did the inhibition at 0.1 µM turn out when Cn1cncc1C(OCc1c(-c2cc(Cl)cc(Cl)c2)cc(C#N)c(=O)n1C)c1ccc(C#N)cc1 (stereo not drawn) [Example 51, 6-(((4-cyanophenyl)(1-methyl-1H-imidazol-5-yl)methoxy)methyl)-5-(3,5-dichlorophenyl)-1-methyl-2-oxo-1,2-dihydro-3-pyridinecarbonitrile] was run?
A: Its inhibition at 0.1 µM is 100%.

Q: For Cn1cncc1C(OCc1c(-c2cccc(OC(F)(F)F)c2)cc(C#N)c(=O)n1C)c1ccc(C#N)cc1 (stereo not drawn) [Example 50, 6-(((4-cyanophenyl)(1-methyl-1H-imidazol-5-yl)methoxy)methyl)-1-methyl-2-oxo-5-(3-(trifluoromethoxy)phenyl)-1,2-dihydro-3-pyridinecarbonitrile], which inhibition at 0.1 µM is on record?
A: The inhibition at 0.1 µM was 100%.

Q: How did the inhibition at 0.1 µM turn out when Cn1cncc1C(OCc1c(-c2cccc(Cl)c2)cc(C#N)c(=O)n1C)c1ccc(C#N)cc1 (stereo not drawn) [Example 48, 5-(3-chlorophenyl)-6-(((4-cyanophenyl)(1-methyl-1H-imidazol-5-yl)methoxy)methyl)-1-methyl-2-oxo-1,2-dihydro-3-pyridinecarbonitrile] was run?
A: The inhibition at 0.1 µM was 100%.

Q: Which inhibition at 0.1 µM does the source give for COc1cccc(-c2cc(C#N)ccc2COC(c2ccc(C#N)cc2)c2cncn2C)c1 (stereo not drawn) [Example 31, 6-(((4-cyanophenyl)(1-methyl-1H-imidazol-5-yl)methoxy)methyl)-3′-methoxy(1,1′-biphenyl)-3-carbonitrile] here?
A: Its inhibition at 0.1 µM is > 97%.

Q: How did the inhibition at 0.1 µM turn out when Cn1cncc1C(OCc1c(-c2cc(F)cc(F)c2)cc(C#N)c(=O)n1C)c1ccc(C#N)cc1 (stereo not drawn) [Example 49, 6-(((4-cyanophenyl)(1-methyl-1H-imidazol-5-yl)methoxy)methyl)-5-(3,5-difluorophenyl)-1-methyl-2-oxo-1,2-dihydro-3-pyridinecarbonitrile] was run?
A: Its inhibition at 0.1 µM is 100%.

Same assay, conditions: read-out: % Inhibition at 10^−8 M

Q: For Cn1cncc1C(OCc1ccc(C#N)nc1-c1cc(F)cc(F)c1)c1ccc(C#N)cc1 (stereo not drawn) [Example 90, 5-(((4-cyanophenyl)(1-methyl-1H-imidazol-5-yl)methoxy)methyl)-6-(3,5-difluorophenyl)pyridine-2-carbonitrile], which inhibition at 0.01 µM is on record?
A: Its inhibition at 0.01 µM is 92%.

Reference: patent US20020115640A1, “Farnesyltransferase inhibitors” (priority 2000, published 2002)
